This passage reports IC50 results from ChEMBL document CHEMBL3853264 (Medchemcomm, 2016).

The chains behind the UniProt entries cited, without tags or fusion partners. Where a name states a change or a piece, a line headed by the entry shows the natural chain unless it says otherwise.
UniProt Q96S37: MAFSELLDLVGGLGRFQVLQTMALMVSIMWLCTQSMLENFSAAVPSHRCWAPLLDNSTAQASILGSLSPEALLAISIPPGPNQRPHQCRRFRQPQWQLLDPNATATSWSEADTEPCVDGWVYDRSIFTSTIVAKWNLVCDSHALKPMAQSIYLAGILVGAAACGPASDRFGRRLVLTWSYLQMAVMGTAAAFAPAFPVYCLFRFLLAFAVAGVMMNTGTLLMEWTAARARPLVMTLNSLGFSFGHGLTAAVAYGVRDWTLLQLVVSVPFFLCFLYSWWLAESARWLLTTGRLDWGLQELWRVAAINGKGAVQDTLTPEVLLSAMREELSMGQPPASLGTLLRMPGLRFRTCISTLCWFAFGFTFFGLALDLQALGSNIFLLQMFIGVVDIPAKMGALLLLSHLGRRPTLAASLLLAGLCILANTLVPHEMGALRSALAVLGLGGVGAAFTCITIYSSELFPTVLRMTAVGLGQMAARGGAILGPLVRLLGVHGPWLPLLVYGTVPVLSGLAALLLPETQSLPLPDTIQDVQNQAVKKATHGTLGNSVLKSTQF

In general, pIC50 refers to the negative decadic logarithm of the IC50, by convention in mol/L.

This assay addresses Solute carrier family 22 member 12 (Homo sapiens, UniProt Q96S37). As to the kind of experiment: Inhibition of URAT1 (unknown origin).

pIC50: −log10 of the molar value.

`O=C(O)CSc1nnc(Br)n1-c1ccc(C2CC2)c2ccccc12` had a pIC50 of 5.17.
